Values of other authors, collected in patent US9222055B2, “High intensity fragrances” (TAKASAGO INTERNATIONAL CORPORATION, priority 2009, dated 2015).

Details: Table 1

For `COc1ccc(CO)cc1` [ANISIC ALCOHOL, anisic alcohol], the Readily biodegradable is given as “Yes”.
